From patent EP2305660A1, “New thiadiazole derivatives” (Almirall, S.A., priority 2009, dated 2011)

The chains behind the UniProt entries cited, without tags or fusion partners.
UniProt P21453, whole entry, species assumed: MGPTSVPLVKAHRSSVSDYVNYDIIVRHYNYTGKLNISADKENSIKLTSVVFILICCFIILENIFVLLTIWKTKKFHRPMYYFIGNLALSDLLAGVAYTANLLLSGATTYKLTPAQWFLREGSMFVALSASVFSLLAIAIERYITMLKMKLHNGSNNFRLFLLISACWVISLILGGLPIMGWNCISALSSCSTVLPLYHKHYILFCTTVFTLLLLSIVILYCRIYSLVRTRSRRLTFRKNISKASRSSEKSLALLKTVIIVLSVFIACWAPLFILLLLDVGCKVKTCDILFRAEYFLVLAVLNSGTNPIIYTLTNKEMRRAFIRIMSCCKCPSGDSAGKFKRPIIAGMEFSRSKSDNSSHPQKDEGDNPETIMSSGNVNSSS

Biological target: S1P1 (Homo sapiens, UniProt P21453)
Assay: 35S-GTPyS binding assay (membranes)
Type: biochemical
Settings: compound 0.1nM-10µM, 0.1nM 35S-GTPyS, 10µM S1P as 100% maximum efficacy, 90 min at room temperature
Description: The effect of the compounds was measured using a 35S-GTPyS binding assay. Briefly, membranes were incubated in a buffer containing 20 mM HEPES pH 7.4, 100 mM NaCl, 10 mM MgCl2, 10µM GDP, 50µg/ml saponin and 0.2% fatty acid-free BSA at various concentrations (0.1nM-10µM) and 0.1nM 35S-GTPyS. 10µM S1P was used as 100% maximum efficacy. The assay was incubated for 90 min at room temperature with gentle mixing, and terminated by filtrating the reaction mixture through GF/C filter plates using the Manifold Filtration System. The filters were immediately washed with sodium phosphate pH 7.4 buffer. After drying the filter plates scintillant liquid were added to each well and 35S-GTPyS binding was measured on a Trilux Scintillation Counter.

EC50 | Substance
10.1 nM | (1S,2R)-2-{[2-(4-{5-[butyl(2-chlorobenzoyl)amino]-1,3,4-thiadiazol-2-yl}-2,6-dimethylphenoxy)ethyl]amino}cyclopentanecarboxylic acid [Example 68]
2.8 nM | N-[2-(4-{5-[butyl(2-chlorobenzoyl)amino]-1,3,4-thiadiazol-2-yl}-2,6-dimethylphenoxy)ethyl]-N-methylglycine [Example 45]
